The numbers were not newly measured in patent US8536118B2, “Methods and compositions for modulating hyperstabilized c-met” (Genentech, Inc., priority 2005, dated 2013), which cites them from elsewhere.

For the data set, the system named is B-cell non-Hodgkin's Lymphoma (NHL). The following applies: cited from earlier work.

B1: ibritumomab tiuxetan (conjugate, chains of the INN, looked up)
heavy: QAYLQQSGAELVRPGASVKMSCKASGYTFTSYNMHWVKQTPRQGLEWIGAIYPGNGDTSYNQKFKGKATLTVDKSSSTAYMQLSSLTSEDSAVYFCARVVYYSNSYWYFDVWGTGTTVTVSAPSVYPLAPVCGDTTGSSVTLGCLVKGYFPEPVTLTWNSGSLSSGVHTFPAVLQSDLYTLSSSVTVTSSTWPSQSITCNVAHPASSTKVDKKIEPRGPTIKPCPPCKCPAPNLLGGPSVFIFPPKIKDVLMISLSPIVTCVVVDVSEDDPDVQISWFVNNVEVHTAQTQTHREDYNSTLRVVSALPIQHQDWMSGKEFKCKVNNKDLPAPIERTISKPKGSVRAPQVYVLPPPEEEMTKKQVTLTCMVTDFMPEDIYVEWTNNGKTELNYKNTEPVLDSDGSYFMYSKLRVEKKNWVERNSYSCSVVHEGLHNHHTTKSFSR
light: QIVLSQSPAILSASPGEKVTMTCRASSSVSYMHWYQQKPGSSPKPWIYAPSNLASGVPARFSGSGSGTSYSLTISRVEAEDAATYYCQQWSFNPPTFGAGTKLELKRADAAPTVFIFPPSDEQLKSGTASVVCLLNNFYPREAKVQWKVDNALQSGNSQESVTEQDSKDSTYSLSSTLTLSKADYEKHKVYACEVTHQGLSSPVTKSFN
modifications: tiuxetan chelator
Consider B1, for which the clinical activity entry (B-cell non-Hodgkin's Lymphoma) is given as “has activity against B-cell non-Hodgkin's Lymphoma (NHL)”. Further, where the note is “human, in vivo”, the “adverse effect of administration” value was “severe and prolonged cytopenias in most patients”.
